Experiment [1] concerns fentanyl-induced overdose in rats. To be noted: for full recovery time: 1.24 umol/kg; for full recovery time / mean reversal time / mean overdose reversal time: intranasal; for mean reversal time: equimolar basis; for Average total recovery time: n=5; for Average recovery time: NB 0.1 mg/kg IN.
Experiment [2] has as its system rats, fentanyl-induced overdose model. Briefly: Respiratory rate and RR AUC in fentanyl-induced overdose model. To be noted: compared to the naloxone or NB33 alone groups. The format is in vivo, Rattus norvegicus, Wistar.
For experiment [3] the test system is unchanged. Briefly: Cold ethanol tail flick test (TFT), maximum possible analgesia. In kind it is in vivo, Rattus norvegicus, Wistar. To be noted: for percent of maximum possible analgesia (% MPA): 40 min after intervention, single agents; for PT + 40 TFT: 40 minutes after fentanyl. On the technique in general: In hot-plate and tail-flick tests a longer latency is read as antinociception.

Values joined by “and” are separate entries in the source; they are usually repeats but may differ in a detail not shown here. Equal values may be shown once. Read-outs that look alike come from different tables or passages of the source.

`C=CCN1CCC23c4c5ccc(OC(=O)/C=C/C=C/C)c4OC2C(=O)CCC3(O)C1C5` (centres unmarked) [NX90, 3-hexadienoate derivative of naloxone]: the full recovery time in experiment [1] was determined as 84 ± 24 s. For the same molecule, the mean reversal time stood at 102 ± 58 s in experiment [1] (high dose 0.62 umol/kg) and 372 ± 90 s in experiment [1] (low dose 0.31 umol/kg). In addition, the Total recovery time in experiment [1] (individual rats, NX90 0.64 μmol/kg (0.52 mpk) IN, fentanyl 0.130 mg/kg IM) is 180 seconds and 60 seconds (4×). Also, the “Average total recovery time” value in experiment [1] (NX90 0.16 μmol/kg (0.13 mpk) IN, fentanyl 0.130 mg/kg IM) was determined as 372 ± 201 s; in experiment [1] (NX90 0.32 μmol/kg (0.26 mpk) IN, fentanyl 0.130 mg/kg IM) it was 102 ± 58 s; in experiment [1] (NX90 0.64 μmol/kg (0.52 mpk) IN, fentanyl 0.130 mg/kg IM), 84 ± 54 s. For the same molecule, the “total severity of respiratory depression, RR AUC (RR×min)” value in experiment [2] is “significantly lower”.

Regarding `C/C=C/C=C/C(=O)Oc1ccc2c3c1OC1C(O)CCC4(O)C(C2)N(CC2CCC2)CCC314` (centres unmarked) [NB33, 3-hexadienoate derivative of nalbuphine], in experiment [1] (alone, any dose), the “effectiveness as OD reversal agent” value is “not an effective OD reversal agent at any dose”. In addition, the mean reversal time in experiment [1] (high dose 0.62 umol/kg) was 1272 ± 278 s; in experiment [1] (low dose 0.31 umol/kg) it was 1548 ± 173 s.

In the case of `Oc1ccc2c3c1O[C@H]1[C@@H](O)CC[C@@]4(O)[C@@H](C2)N(CC2CCC2)CC[C@]314`, the Average recovery time amounted to 5040 s in experiment [1] (5 F), 5760 s in experiment [1] (5 M) and 5400 s in experiment [1] (group average). Further, in experiment [1] (NB alone), the “mean overdose reversal time” value is 90 ± 9.9 min. Besides, the “alertness recovery” value in experiment [1] (fentanyl-induced overdose model) is on record as “the last or next to last reflex to recover”. The “percent of maximum possible analgesia (% MPA)” value in experiment [3] stood at 100%. Besides, the “MPA % average by sex” value in experiment [3] (NB 0.1 mg/kg, 5 F) worked out at 100%; in experiment [3] (NB 0.1 mg/kg, 5 M), 100%. Besides, the “PT + 40 TFT” value in experiment [3] (NB 0.1 mg/kg, 5 F, cutoff 40 seconds) is >40 s; in experiment [3] (NB 0.1 mg/kg, 5 M, cutoff 40 seconds) it was >40 s; in experiment [3] (NB 0.1 mg/kg, group average) it was >40 s. Besides, the MPA % average in experiment [3] (NB 0.1 mg/kg, group) is listed as 100%.

Molecule `C=CCN1CC[C@]23c4c5ccc(O)c4O[C@H]2C(=O)CC[C@@]3(O)[C@H]1C5` had a full recovery time in experiment [1] of 96 ± 24 s. Besides, the “mean overdose reversal time” value in experiment [1] (NX alone 0.1 mg/kg) worked out at 11.4 ± 2.7 min; in experiment [1] (NX alone 0.2 mg/kg) it was 4.8 ± 1.0 min. The mean reversal time in experiment [1] (high dose 0.62 umol/kg) stood at 288 ± 130 s; in experiment [1] (low dose 0.31 umol/kg), 684 ± 159 s. Besides, the “Average total recovery time” value in experiment [1] (NX 0.16 μmol/kg (0.1 mpk) IN, fentanyl 0.130 mg/kg IM) is 684 ± 356 s; in experiment [1] (NX 0.32 μmol/kg (0.2 mpk) IN, fentanyl 0.130 mg/kg IM) it was 288 ± 130 s. In addition, in experiment [1] (naloxone alone, irrespective of the dose (FIG. 1C)), the “shortest time to reverse an overdose” value is ≥ 90 s. For the same molecule, in experiment [3], the “percent of maximum possible analgesia (% MPA)” value is given as 5%.

The values are drawn from patent US20240131022A1 (published 2024).
